# Values joined by “and” are separate entries in the source; they are usually repeats but may differ in a detail not shown here. Equal values may be shown once. The entries are a selection whose mix differs from that of the whole data set. Results filed as inconclusive are left out. Active and inactive are the calls of the source. The call rests on the fitted dose curve; in most records, active means well fitted cell-killing curve with a large enough effect in the repeat runs; inconclusive means weak or mixed curves; inactive means flat fitted curve, though single readings scatter.
# Test: qHTS RealTime-Glo MT Cell Viability Assay in HepG2 cells - 24 hour (AID 1224867); further: nearly all actives have a fitted effect of over 50% in size
# Conditions: RealTime-Glo luminescence, at 35.3 µM (top of the series)
# Description: U.S. Tox21 Program National Center for Advancing Translational Sciences [NCATS] NIH Chemical Genomics Center [NCGC] U.S. Environmental Protection Agency [EPA] National Institutes of Environmental Health Sciences [NIEHS] National Toxicology Program [NTP] U.S. Food and Drug Administration [FDA] Tox21 Assay Overview: Measure of cell viability is critical in the cell-base assay. Analysis of cell viability is necessary for the characterization of cell responses to cytotoxic drugs and environmental stress. A RealTime-Glo MT Cell Viability Assay to monitor cell viability in real time of continues cell culture during 40 hours of compound treatment was used to screen Tox21 10K library compounds in HepG2 cells. The RealTime-Glo MT Cell Viability Assay is a nonlytic, homogeneous, bioluminescent method to measure cell viability in real time using a simple, plate-based method. The assay involves adding NanoLuc luciferase and a cell-permeant prosubstrate to cells in culture. Viable cells reduce the proprietary prosubstrate to generate a substrate for NanoLuc luciferase. This substrate diffuses from cells into the surrounding culture medium, where it is rapidly used by the NanoLuc Enzyme to produce a luminescent signal. The signal correlates with the number of viable cells, making the assay well suited for cytotoxicity studies.
# Tox21 Assay Protocol Summary: The mixture of HepG2 cell suspension and reagents were dispensed at 600cells/6 ul/well in 1536-well tissue culture treated black solid bottom plates using a Multidrop dispenser. After the assay plates were incubated at a 37 C/5% CO2 incubator for 5 hours, 23 nL of compounds dissolved in DMSO, positive and negative controls was transferred to the assay plate by a pintool work station. The plates were incubated at 37 C for 40 hours. The luminescence intensity were measured at 0h, 8h, 16h, 24h, 32h and 40h time points using ViewLux plate reader during compound treatment.
# On the % scale 0 is the no-effect control and ±100 the full control effect.
row,SMILES,"activity change, negative = cytotoxicity"
1,OCCSCCO,inactive: -13.8%
2,C/C1=C2N=C(/C=C3N=C(/C(C)=C4\[N-][C@@](C)([C@@H]5N=C1[C@](C)(CCC(=O)NC[C@@H](C)OP(=O)([O-])O[C@H]1[C@@H](O)[C@@H](n6cnc7cc(C)c(C)cc76)O[C@@H]1CO)[C@H]5CC(N)=O)[C@@](C)(CC(N)=O)[C@@H]4CCC(N)=O)[C@@](C)(CC(N)=O)[C@@H]\3CCC(N)=O)C(C)(C)[C@@H]/2CCC(N)=O.[C-]#N.[Co+3],inactive: -4.41%
3,Cc1cccc([N+](=O)[O-])c1[N+](=O)[O-],inactive: 5.37%
4,CCOP(=O)(CC)Oc1ccc([N+](=O)[O-])cc1 (stereo not given),inactive: -5.61%

# Same assay, conditions: RealTime-Glo luminescence, at 76.8 µM (top of the series)
row,SMILES,"activity change, negative = cytotoxicity"
1,CC(C)N(CCO)C(C)C,inactive: -6.42%
2,O=[N+]([O-])c1cccc([N+](=O)[O-])c1,inactive: 4.39%
3,[NH4+].[O-][Cl+3]([O-])([O-])[O-],inactive: 0.18% and inactive: 1.45%
4,Cc1c([N+](=O)[O-])cccc1[N+](=O)[O-],inactive: 0.654% and inactive: 0.744%
5,OCCSCCO,inactive: -1.08%
6,COc1ccc([N+](=O)[O-])cc1[N+](=O)[O-],inactive: -9.03%
7,CCN(CC)CCCl,inactive: -0.145%
8,N=C(N)N[N+](=O)[O-],inactive: 0.0338%
9,Nc1cc([N+](=O)[O-])cc([N+](=O)[O-])c1O,inactive: -11.3%
10,CN(C)CCCl,inactive: 3.14%
11,O=[N+]([O-])OCC(CO[N+](=O)[O-])(CO[N+](=O)[O-])CO[N+](=O)[O-],inactive: -1.38%
12,CCOP(=O)(CC)OCC,inactive: 1.04%
13,CP(=O)(O)OCCC[Si](O)(O)O,inactive: 1.34%
14,Cc1ccc([N+](=O)[O-])c([N+](=O)[O-])c1,inactive: -1.64% and inactive: -1.86%
15,N#CBr,inactive: 3.42%
16,COP(C)(=O)OC,inactive: -0.247% and inactive: -0.532%

# From PubChem BioAssay (Tox21)
